Earlier results as cited in patent US4520134A, “N-alkyl-4'-hydroxyacetanilides, pharmaceutical compositions comprising them and their use” (priority 1984, dated 1985).

Conditions: some sensitive strains of mice, e.g. outbred Swiss; cited from earlier work

Compound: CC(=O)Nc1ccc(O)cc1 [acetaminophen]
- LD100: 400 mg/kg
